Source: PubChem (National Center for Advancing Translational Sciences (NCATS))
LMNA splice mod – changes lamin A minigene splicing in HeLa cells; HeLa LMNA splicing GFP/RFP minigene ratio, 48 h; Potency, µM (highest dose often 46.1 µM), usual class: inhibitors; 200,000 compounds, 0.01% hits; AID 1487; active means well fitted inhibition curve with a large enough effect in the signal ratio, with a control signal flat, not every such curve was filed as active; inconclusive means small, poorly fitted or top-dose-only effect, or effect the other way, or a change in a side signal; the % refers to the signal ratio
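S3 HeLa cells stably expressing lamin A-EGFP splicing minigene plus DsRed2, 600 cells/well, 48 h compound exposure at 37C. Laser-scanning cytometry; analysed as GFP (500-530 nm)/RFP (575-640 nm) total intensity ratio; 0.5% DMSO vehicle.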
ALDH1A1 block – ALDH1A1 (human) enzyme inhibition | P00352 | Purified ALDH1A1, NADH fluorescence, propionaldehyde substrate | Potency, µM (highest dose often 75.3 µM), usual class: inhibitors | 220,000 compounds, 7.3% hits; active means well fitted inhibition curve with a large enough effect, not every such curve was filed as active; inconclusive means small, poorly fitted or top-dose-only effect, or another doubt; inactive means no such curve, though single readings can be large or run the other way
G9a block – inhibitors of human histone lysine methyltransferase G9a; Q96KQ7; G9a H3K9 monomethylation, AlphaScreen, 2 h; Potency, µM (series often up to 102 µM), hits mostly inhibitors; 350,000 compounds, 8.8% hits; further: nearly all actives have a fitted effect of over 75% in size
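G9a (20 nM) preincubated 15 min RT with compounds, then 500 nM biotinylated H3K9 peptide and 20 uM SAM added; 2 h RT reaction. Monomethyl-H3K9 product detected by AlphaScreen with anti-H3K9me1 antibody, streptavidin donor and anti-rabbit IgG acceptor beads.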
Sfp inh – Sfp phosphopantetheinyl transferase inhibition. Q9F4F7. Biochemical Sfp PPTase activity, qHTS. Potency, µM, actives largely listed as inhibitors. 310,000 compounds, 3.5% hits;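 further: the enzyme is Sfp with the accession as filed and its product quenches rhodamine fluorescence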
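Step 1, compound plus 15 nM Sfp-PPTase, 15 min, room temperature. Step 2, add rhodamine-CoA (5 uM) and BHQ-2-YbbR (12.5 uM). Step 3, read 525/598 nm fluorescence at 0 and 30 min.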
JMJD2E inh – blocks human JMJD2E demethylase activity. 230,000 compounds, 1.6% hits. JMJD2E catalytic domain, FDH-coupled NADH fluorescence (FDH is formaldehyde dehydrogenase). B2RXH2. Potency, µM (top dose mostly 57.1 µM), actives largely listed as inhibitors; active means well fitted inhibition curve with a large enough effect, not every such curve was filed as active; inconclusive means small, poorly fitted or top-dose-only effect, or another doubt; inactive means no such curve, though single readings can be large or run the other way; further: nearly all actives have a fitted effect of over 50% in size
miR-21 reporter – raises the signal of a miR-21 reporter | HeLa miR-21 FLuc reporter, luciferase, 48 h | Potency, µM (highest dose often 38.3 µM) | 340,000 tested, under 10 active | AID 2288; active = well fitted rising curve with a large enough effect; inconclusive = small, poorly fitted or top-dose-only effect; inactive = no such curve, though single readings can be large or run the other way;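 note: miR-21 action dims this reporter so a rising signal means less miR-21 action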
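HeLa cells stably expressing CMV-driven firefly luciferase with a downstream miR-21 binding sequence, endogenously expressing miR-21, were treated with titrations (up to about 40uM final) for 48 hours at 37 degree Celsius. Luciferase luminescence was read after lysis.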
A number is an active result; 0 = inactive; ? = inconclusive; - = no result given; [ ] = another dose, or the depositor's remark. Shown are actives, neighbours in structure and some others; about 13% of the full set was active somewhere. Unless noted, the call rests on the fitted dose curve; in most records, active means well fitted curve in the direction sought with a large enough effect; inconclusive means small, poorly fitted or top-dose-only effect, or another doubt; inactive means no such curve, though single readings can be large; an effect the other way counts as inactive or inconclusive.

SMILES	LMNA splice mod	ALDH1A1 block	G9a block	Sfp inh	JMJD2E inh	miR-21 reporter
Cc1ccc(S(=O)(=O)N2CCCN(Cc3nc4ccccc4c(=O)[nH]3)CC2)cc1	-	-	25µM	-	-	-
O=C(c1cc([N+](=O)[O-])ccc1N1CCCCC1)N1CCCCC1	0	20µM	0	0	0	0
O=C(c1cc([N+](=O)[O-])ccc1N1CCCC1)N1CCCCC1	-	0	0	0	0	0
CCN1CCN(C(=S)c2ccc([N+](=O)[O-])cc2)CC1	0	?	10µM	13µM	0	0
O=[N+]([O-])c1ccc(C(=S)N2CCN(Cc3ccccc3)CC2)cc1	?	14µM	?	0	0	0
O=C(Oc1ccc(C(=S)N2CCOCC2)cc1)c1ccc([N+](=O)[O-])cc1	-	-	0[0.501 µM]	0	-	0
O=[N+]([O-])c1ccc(C(=S)N2CCCC2)cc1	-	?	0	50µM	0	0
COc1ccc(-c2c(C)c3ccc(O)c(CN4CCCC(C)C4)c3oc2=O)cc1OC (stereo unspecified)	0	-	0	-	-	0
O=C(c1ccc(Cn2cc(Cl)c([N+](=O)[O-])n2)cc1)N1CCN(Cc2ccccc2)CC1	-	-	50µM	0	0	0
O=C(c1cc([N+](=O)[O-])ccc1Cl)N1CCN(c2ccc(F)cc2)CC1	?	0	45µM	0	0	0
O=C(c1ccc([N+](=O)[O-])o1)N1CCN(Cc2ccccc2)CC1	-	-	-	0	-	0
O=C(c1ccc(Cl)c(S(=O)(=O)N2CCCC2)c1)N1CCN(c2ccc(F)cc2)CC1	?	0	45µM	0	0	0
O=C(CN1CCN(Cc2ccccc2)CC1)NCCNc1ccc([N+](=O)[O-])cn1	0[9.22 µM]	9.5µM	0	0	0	0
FC(F)(F)c1cccc(Cl)c1	-	0	-	-	-	-
C=CCOc1ccccc1CN(C(=O)CCl)c1ccc2c(c1)OCO2	-	-	0	0	-	0
CC(C)NC(=O)COc1ccc(S(=O)(=O)N(C)Cc2ccccc2)cc1	-	-	0[12.7 µM]	0	0	0
CNS(=O)(=O)c1cn(CC(=O)N2CCN(c3cccc(Cl)c3)CC2)cc1S(=O)(=O)NC	-	-	0	-	-	0
COc1cc(C2NC(=O)c3c(sc4c3CCN(C)C4)N2)cc(Br)c1OC(=O)c1ccc(C)cc1 (stereo unspecified)	-	-	0	-	-	0
O=C(NCC(c1cccnc1)N1CCc2ccccc2C1)C(=O)Nc1cccc(Cl)c1 (stereo unspecified)	0	-	0	-	-	0
Cc1ccc(-n2nc3c(N4CCC(C(=O)N5CCCCC5)CC4)nnc(C)c3c2C)cc1	-	-	0	-	-	0
CC1CCN(S(=O)(=O)c2ccc([N+](=O)[O-])cc2)CC1	-	-	0[0.501 µM]	0	-	0
CC1CCN(C(=S)c2ccc([N+](=O)[O-])cc2)CC1	0	?	7.9µM	45µM	0	0
O=C(c1ccc(F)cc1)c1ccc(N2CCCC2)cc1	0	20µM	0	0	?	0
O=C(c1cc([N+](=O)[O-])ccc1Cl)N1CCN(Cc2ccccc2)CC1	-	-	71µM	0	-	0
O=C(c1ccc(F)cc1)c1ccc(N2CCCCC2)cc1	-	-	0	0	-	0
SMILES	LMNA splice mod	ALDH1A1 block	G9a block	Sfp inh	JMJD2E inh	miR-21 reporter
CO[C@@H]1COC(=O)[C@H](C)NC(=O)C/C=C\[C@@H](C)[C@H](OC)COC(=O)[C@H](C)NC(=O)C/C=C\[C@H]1C	-	0[13.5 µM]	-	0	-	-
O=C(OCC(=O)c1ccc(S(=O)(=O)N2CCCC2)cc1)C1=COCCO1	0	?	?	0	0	0
CCN(CC)S(=O)(=O)c1ccc(C(=O)OCC(=O)Nc2sc3c(c2C#N)CCCCC3)cc1	0	?	0	?	0	0
Cc1ccc(C(=O)OCC(=O)Nc2sc3c(c2C#N)CCCC3)cc1NC(=O)c1ccco1	0	?	22µM	?	0	0
N#Cc1c(NC(=O)COC(=O)c2ccc(S(=O)(=O)N3CCCC3)cc2)sc2c1CCCCC2	0	10µM	?	0	0	0
Cc1ccc(C(=O)OCC(=O)Nc2sc3c(c2C#N)CCCCC3)cc1NC(=O)c1ccco1	0	0	0	0	0	0
Cc1ccc(C(=O)OCC(=O)c2ccc(S(=O)(=O)N3CCCCC3)cc2)o1	-	-	50µM	-	-	-
N#Cc1c(NC(=O)COC(=O)c2ccc(F)cc2)sc2c1CCC2	0	0	-	0	0	0
Cc1ccc(C(=O)OCC(=O)Nc2sc3c(c2C#N)CCC3)cc1	0	25µM	0	0	0	0
COc1cccc(-c2cc(=O)c3ccc(OC)cc3o2)c1	0	?	-	0	?	-
COC(=O)c1c(NC(=O)c2nc(SCc3ccc(C)cc3)ncc2Cl)sc2c1CCCC2	-	-	0	-	-	0
CC(=O)c1ccc(N2CCN(C(=O)CCC(=O)Nc3ccc4nc(N5CCN(C)CC5)cc(C)c4c3)CC2)cc1	-	-	?	0	-	0
CCCN1C(=O)C(O)(CC(=O)c2ccc(CC)cc2)c2ccccc21 (stereo unspecified)	0	-	0	-	-	0
COc1ccc(C(=O)CC2(O)C(=O)N(Cc3cccc(C(F)(F)F)c3)c3ccccc32)cc1 (stereo unspecified)	-	-	0	-	-	0
CN1C(=O)C(O)(CC(=O)c2ccc3c(c2)OCO3)c2ccccc21 (stereo unspecified)	0	0	0	0	0	0
O=C(CC1(O)C(=O)N(Cc2ccccc2)c2ccccc21)c1ccc2c(c1)OCO2 (stereo unspecified)	0	7.1µM	0	0	0	0
Cc1ccccc1CN1C(=O)C(O)(CC(=O)c2ccncc2)c2ccccc21 (stereo unspecified)	0	0.11µM	0	0	0	0
O=C(CC1(O)C(=O)N(Cc2ccc3c(c2)OCO3)c2ccccc21)c1ccccc1 (stereo unspecified)	0	8.9µM	0	0	0	0
COc1cccc(C(=O)CC2(O)C(=O)N(Cc3ccccc3)c3ccccc32)c1 (stereo unspecified)	-	-	0	-	-	0
Cc1ccc(C(=O)CC2(O)C(=O)N(Cc3ccc4c(c3)OCO4)c3ccccc32)cc1 (stereo unspecified)	?	1.4µM	0	0	0	0
CN(C(=O)c1ccc2c(c1)N(Cc1cccc(Cl)c1)C(=O)c1ccccc1S2(=O)=O)C1CCCCC1	0	-	0	-	-	0
CCN(CC)C(=O)c1cnn(-c2ccc(F)cc2)c1-n1cccc1	-	-	0	-	-	0
CC(C)(C)C(=O)CC1(O)C(=O)N(Cc2ccccc2)c2ccccc21 (stereo unspecified)	0	7.1µM	0[0.501 µM]	0	0	0
O=C1CC(c2ccccc2)Cc2[nH]c(=O)c(-c3nc(-c4ccc(F)cc4)cs3)cc21 (stereo unspecified)	-	-	0.63µM	-	-	0
NS(=O)(=O)c1ccccc1	-	-	0	0	0	0
Nc1cc(S(N)(=O)=O)ccc1SSc1ccc(S(N)(=O)=O)cc1N	-	2µM	-	-	-	-
COCCN(CC(=O)Nc1cccc(C)c1C)C(=O)c1oc2c(Cl)cccc2c1C	-	-	0	-	-	-
